From article PMC12836348, “Alanine Mutagenesis Identifies Specific Amino Acids of Nemertide Alpha‑1 Activity and Its Binding to Target Receptors” (Journal of Natural Products, 2025)

Assays:
Type in all cases: cell-based
Design in all cases: key: “+” means tested and produced effect; “–“ means tested but no effect
TRPV1 = test: Ion channel panel, TRPV1; settings: S12A at 5 μM; −90 mV, 1 μM capsaicin, 10 μM capsazepine, n ≥ 3
Text: (§1) To assess the concentration–response relationships, data were fitted with the Hill equation: y = 100/[1 + (EC50/[toxin])^ h ], where y is the amplitude of the toxin-induced effect (y = I 30 ms/I peak where I 30 ms is the current value at 30 ms in the presence of toxin and I peak is the peak current amplitude in control conditions), EC50 is the toxin concentration at half-maximal efficacy, [toxin] is the toxin concentration, and h is the Hill coefficient. Potassium and calcium currents were evoked by a 500 ms depolarization to the voltage corresponding to the maximal activation of the channels in control conditions from a holding potential of −90 mV. Elicited currents were sampled at 1 kHz and filtered at 0.5 kHz. […] ASIC1a currents were measured in ND96 solutions at a pH of 7.4 and 4.5, at a holding potential of −70 mV during 400 s, and the data were filtered at 20 Hz. EnaC currents were measured by clamping oocytes at a holding potential of −60 mV and perfusing with low- (1 mM) and high- (96 mM) sodium ND96. Opioid currents were measured by clamping the potential to −70 mV and changing the perfusion solution from ND96 to high-potassium (HK) solution composed of 96 mM KCl, 2 mM NaCl, 1 mM MgCl2, 1.8 mM CaCl2, and 5 mM HEPES, with a final pH of 7.5. […] TRPV1 and TRPA1 currents were continuously monitored in a perfusing ND96 solution, following a protocol at −90 mV for 400 s. […]

Kv1.4 = test: Ion channel panel, Kv1.4; settings: S12A at 5 μM; Xenopus oocytes, n ≥ 3
Text: as §1

μ-Opoid receptor = test: Ion channel panel, μ-opioid receptor; settings: S12A at 5 μM; −70 mV, HK solution, 0.2 μM morphine, n ≥ 3
Text: as §1

αβγδ = test: Ion channel panel, nAChR αβγδ; settings: S12A at 5 μM, oocytes at −70 mV, 5 min incubation, n ≥ 3
Text: as §1

Cav3.1 = test: Ion channel panel, Cav3.1; settings: S12A at 5 μM; Xenopus oocytes, n ≥ 3
Text: as §1

Kv3.1 = test: Ion channel panel, Kv3.1; settings: S12A at 5 μM; Xenopus oocytes, n ≥ 3
Text: as §1

Kv4.3 = test: Ion channel panel, Kv4.3; settings: S12A at 5 μM; Xenopus oocytes, n ≥ 3
Text: as §1

CC[C@H](C)[C@@H]1NC(=O)[C@@H](NC(=O)CN)CSSC[C@@H]2NC(=O)[C@@H]3CSSC[C@@H](C(=O)N[C@@H](CC(N)=O)C(=O)N4C[C@H](O)C[C@H]4C(=O)N4C[C@H](O)C[C@H]4C(=O)N[C@@H](CC(N)=O)C(=O)N[C@@H](CCC(N)=O)C(=O)O)NC(=O)[C@H](CCCCN)NC(=O)[C@H](Cc4ccccc4)NC(=O)[C@H](CC(N)=O)NC(=O)[C@H](Cc4c[nH]c5ccccc45)NC(=O)CNC(=O)[C@H](CSSC[C@H](NC(=O)[C@H](Cc4ccccc4)NC(=O)[C@H](CO)NC(=O)CNC(=O)[C@H]([C@@H](C)O)NC(=O)[C@H](C)NC1=O)C(=O)N[C@@H]([C@@H](C)O)C(=O)N[C@@H](CC(C)C)C(=O)N[C@@H](C)C(=O)N[C@@H](CCCCN)C(=O)NCC(=O)N3)NC(=O)[C@H](CC(N)=O)NC(=O)[C@H](CCCCN)NC(=O)[C@H]([C@@H](C)O)NC2=O [Peptide S12A]
–: effect on TRPV1 (TRPV1) | effect on Kv1.4 (Kv1.4) | effect on μ-Opoid receptor (μ-Opoid receptor) | effect on αβγδ (αβγδ) | effect on Cav3.1 (Cav3.1) | effect on Kv3.1 (Kv3.1) | effect on Kv4.3 (Kv4.3)
